{"sequences": {"note": "The chains behind the UniProt entries cited, without tags or fusion partners. Where a name states a change or a piece, a line headed by the entry shows the natural chain unless it says otherwise.", "UniProt P35408": "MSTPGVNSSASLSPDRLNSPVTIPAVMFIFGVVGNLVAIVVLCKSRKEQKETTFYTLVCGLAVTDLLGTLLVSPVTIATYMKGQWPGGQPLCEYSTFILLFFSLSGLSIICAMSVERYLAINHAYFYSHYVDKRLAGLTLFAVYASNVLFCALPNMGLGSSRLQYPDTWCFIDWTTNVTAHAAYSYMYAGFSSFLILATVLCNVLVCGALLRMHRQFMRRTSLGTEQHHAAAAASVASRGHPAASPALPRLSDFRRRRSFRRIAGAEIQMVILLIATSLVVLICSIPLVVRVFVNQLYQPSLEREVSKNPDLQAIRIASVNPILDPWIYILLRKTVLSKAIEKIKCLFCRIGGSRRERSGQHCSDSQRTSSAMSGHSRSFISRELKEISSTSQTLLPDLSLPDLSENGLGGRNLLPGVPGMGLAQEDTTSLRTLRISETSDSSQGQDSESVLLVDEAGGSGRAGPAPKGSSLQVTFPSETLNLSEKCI"}, "source": "paper PMC10700596", "about": "(Nature Communications, 2023)", "target": "wild-type EP4R (Homo sapiens, UniProt P35408)", "format": "cell-based", "details": "relative to 74; Supplementary Data 1"}
{"smiles": "CN(c1ncnc2[nH]c3ccccc3c12)C1CC2(CCC(C(=O)O)CC2)C1", "note": "(stereo not shown) [Compound 76, CN(C1CC2(C1)CCC(CC2)C(=O)O)C=3N=CN=C4NC=5C=CC=CC5C34]", "values": [{"measurement": "reduced potency of analog", "value": "up to 10 fold"}]}
